These results are taken from paper PMC8882856.

Chains of the proteins cited; added tags and fusions are not shown.
UniProt P08913, whole entry: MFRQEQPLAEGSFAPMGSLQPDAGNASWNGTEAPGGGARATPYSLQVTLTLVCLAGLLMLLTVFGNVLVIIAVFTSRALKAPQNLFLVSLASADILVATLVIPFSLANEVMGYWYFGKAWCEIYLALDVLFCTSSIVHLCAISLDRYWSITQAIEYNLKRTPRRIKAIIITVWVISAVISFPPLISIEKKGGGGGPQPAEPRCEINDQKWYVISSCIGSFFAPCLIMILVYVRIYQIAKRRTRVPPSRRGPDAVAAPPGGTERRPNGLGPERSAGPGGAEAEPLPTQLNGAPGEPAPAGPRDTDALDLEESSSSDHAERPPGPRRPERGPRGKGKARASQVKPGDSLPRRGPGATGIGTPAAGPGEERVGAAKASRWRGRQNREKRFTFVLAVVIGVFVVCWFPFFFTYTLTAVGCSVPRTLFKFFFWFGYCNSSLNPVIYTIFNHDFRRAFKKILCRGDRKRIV
UniProt P18089, whole entry: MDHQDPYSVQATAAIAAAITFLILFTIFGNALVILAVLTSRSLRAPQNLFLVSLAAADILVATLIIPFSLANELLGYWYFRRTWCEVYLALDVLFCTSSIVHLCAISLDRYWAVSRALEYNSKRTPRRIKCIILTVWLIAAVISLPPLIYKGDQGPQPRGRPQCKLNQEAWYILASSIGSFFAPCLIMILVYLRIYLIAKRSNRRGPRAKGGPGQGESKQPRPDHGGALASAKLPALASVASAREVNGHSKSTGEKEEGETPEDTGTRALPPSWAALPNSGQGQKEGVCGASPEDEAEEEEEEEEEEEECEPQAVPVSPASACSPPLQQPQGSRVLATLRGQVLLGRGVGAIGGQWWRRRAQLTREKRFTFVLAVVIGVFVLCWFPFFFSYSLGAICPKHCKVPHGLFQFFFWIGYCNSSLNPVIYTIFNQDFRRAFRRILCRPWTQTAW
UniProt P18825, whole entry: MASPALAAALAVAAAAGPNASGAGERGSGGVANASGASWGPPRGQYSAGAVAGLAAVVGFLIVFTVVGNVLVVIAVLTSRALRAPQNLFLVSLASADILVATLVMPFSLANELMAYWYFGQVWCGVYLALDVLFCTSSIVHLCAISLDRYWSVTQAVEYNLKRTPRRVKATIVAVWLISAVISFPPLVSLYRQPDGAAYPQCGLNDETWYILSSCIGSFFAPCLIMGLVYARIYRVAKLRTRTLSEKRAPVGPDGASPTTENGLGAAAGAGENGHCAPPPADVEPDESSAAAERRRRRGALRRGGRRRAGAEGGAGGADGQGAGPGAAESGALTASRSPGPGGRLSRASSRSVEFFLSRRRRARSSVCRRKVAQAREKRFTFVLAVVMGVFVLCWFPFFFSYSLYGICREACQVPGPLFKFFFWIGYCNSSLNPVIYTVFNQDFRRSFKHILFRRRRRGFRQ

SMILES strings stand for the structures. pIC50, pKd: −log10 of the molar value. Where two headings read alike, the source gives them in different places. A value given as a limit tells only on which side of the number the result lay.

For assay [1], the target named is T1, human α2A‐adrenoceptor (Homo sapiens, UniProt P08913).
In assay [2] the target is T2, human α2B‐adrenoceptor (Homo sapiens, UniProt P18089). Nature of the assay: ^3H‐rauwolscine whole cell competition binding, CHO‐α2B cells.
For assay [3], the target named is T3, human α2C‐adrenoceptor (Homo sapiens, UniProt P18825). As to the kind of experiment: ^3H‐rauwolscine whole cell competition binding, CHO‐α2C cells.
Assay [4] has as its target human β2‐adrenoceptor (Homo sapiens, UniProt P07550).
Assay [5] addresses T2, human α2B‐adrenoceptor. Nature of the assay: cell-based.
Assay [6] concerns the target T1, human α2A‐adrenoceptor. Nature of the assay: cell-based.
Assay [7] concerns human α1A‐adrenoceptor. As to the kind of experiment: whole cell binding at α1A‐adrenoceptor, identical technique, previous study [33].
For assay [8], the target named is T3, human α2C‐adrenoceptor. As to the kind of experiment: cell-based.

Usually pKd stands for the negative decadic logarithm of the Kd, by convention in mol/L. `COc1cccc2c1CCC[C@H]2CN(C)CCc1ccc2ccoc2c1.CS(=O)(=O)O` [A80426]: the negative-log Kd (pKd) in assay [1] is 7.24.

The term pIC50 denotes −log10 of the IC50, conventionally taken in molar units. Read a low pIC50 as a large IC50. Take `COC(=O)C1=C(C)NC(C)=C(C(=O)NCCCN2CCC(c3ccccc3)(c3ccccc3)CC2)C1c1ccc([N+](=O)[O-])cc1` (centres unmarked) [SNAP5089]: in assay [2], the pIC50 was less than 5.00. This compound also gave a pKd in assay [3] of 5.65.

Take `O=C1NCCN1CCN1CCC(c2cn(-c3ccc(F)cc3)c3ccc(Cl)cc23)CC1` [sertindole]: the negative logarithm of the IC50 (pIC50) in assay [4] was less than 5.00. Moreover, the pKd in assay [5] is 5.81; in assay [6], 5.95.

`C[C@H](Cc1cc2c(c(C(N)=O)c1)N(CCCO)CC2)NCCOc1ccccc1OCC(F)(F)F` [silodosin]: in assay [7], the “α1A selectivity over α2 or β1 or β2‐adrenoceptors” value is greater than 500 and the “α1A selectivity window compared to the other adrenoceptors” value is recorded as greater than 100 fold. The “Selectivity ratio α2A vs α2C (higher affinity for α2C)” value in assay [3] was found to be 4.3.

Turning to `O=C1NCN(c2ccccc2)C12CCN(CC1COc3ccccc3O1)CC2` (centres unmarked) [spiroxatrine], the pKd in assay [5] is 7.87.

`CC(CN(C)C)CN1c2ccccc2CCc2ccccc21` (centres unmarked) [trimipramine] had a pIC50 in assay [4] of less than 4.00.

As to `COc1ccccc1N1CCN(CCCNc2cc(=O)n(C)c(=O)n2C)CC1` [urapidil], the negative logarithm of the Kd (pKd) is 5.78 in assay [5] and 6.34 in assay [8].

In turn, `O=C1Cc2cc(CCN3CCN(c4nsc5ccccc45)CC3)c(Cl)cc2N1` [ziprasidone] showed a pKd in assay [6] of 6.36.
